Target: T1, Ku heterodimer (Ku70/Ku80), full length, recombinant human (human, UniProt P12956 1-609; P13010 1-732)
T1 construct: Ku70, human; Ku80, human; also called recombinant Ku; full-length Ku heterodimer; source: insect cells, baculovirus expression system, purified (immobilized metal-chelate chromatography, gel filtration)
Test: pull-down; 50 nM Strep-tagged WRN protein immobilised on Streptavidin Mag Sepharose beads, 50 nM recombinant untagged Ku, 1 h at 4 °C; 20 mM Hepes pH 7.5, 150 mM NaCl, 5% glycerol, 0.5 mM TCEP, 0.05% IGEPAL-CA640; SDS–PAGE, Coomassie/Instant Blue
Details: both partners purified

B1: purified full-length recombinant Strep-tagged WRN (natural protein)
chain: not shown
notes: Werner syndrome protein (WRN), human, full length; source: insect cells, baculovirus expression system, purified (Strep-Tactin Superflow Plus cartridge, Superose 6 gel filtration)
B1: binds.

— PMC4831024 (Nature Communications, 2016)
